Data: patent US7176199B2, “Aryl-substituted alicyclic compound and medical composition comprising the same” (Dainippon Pharmaceutical Co., Ltd., priority 2001, dated 2007)

Amino acid sequences for entries named in this document (tags omitted). Residues count along the entry.
UniProt P05106, 27-788 limits assumed: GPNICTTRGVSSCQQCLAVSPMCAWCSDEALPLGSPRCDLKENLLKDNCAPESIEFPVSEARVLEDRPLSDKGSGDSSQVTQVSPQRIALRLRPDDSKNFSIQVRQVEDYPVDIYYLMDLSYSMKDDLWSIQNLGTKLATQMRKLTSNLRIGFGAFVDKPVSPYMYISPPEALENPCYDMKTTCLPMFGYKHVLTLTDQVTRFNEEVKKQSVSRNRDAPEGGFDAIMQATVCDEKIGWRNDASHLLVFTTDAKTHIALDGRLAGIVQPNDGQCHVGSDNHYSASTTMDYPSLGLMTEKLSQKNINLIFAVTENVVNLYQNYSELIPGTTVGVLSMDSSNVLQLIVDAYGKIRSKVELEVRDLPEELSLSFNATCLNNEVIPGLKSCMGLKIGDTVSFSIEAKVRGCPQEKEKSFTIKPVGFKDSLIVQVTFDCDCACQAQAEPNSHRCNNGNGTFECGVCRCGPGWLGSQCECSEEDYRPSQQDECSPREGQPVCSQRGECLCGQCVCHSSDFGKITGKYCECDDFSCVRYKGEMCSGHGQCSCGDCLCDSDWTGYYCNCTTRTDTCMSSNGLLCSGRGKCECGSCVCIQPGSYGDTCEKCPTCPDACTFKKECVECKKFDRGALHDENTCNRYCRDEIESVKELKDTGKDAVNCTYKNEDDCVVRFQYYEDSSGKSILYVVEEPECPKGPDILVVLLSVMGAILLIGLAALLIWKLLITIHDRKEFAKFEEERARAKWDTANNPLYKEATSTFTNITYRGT
UniProt P06756, 31-889 limits assumed: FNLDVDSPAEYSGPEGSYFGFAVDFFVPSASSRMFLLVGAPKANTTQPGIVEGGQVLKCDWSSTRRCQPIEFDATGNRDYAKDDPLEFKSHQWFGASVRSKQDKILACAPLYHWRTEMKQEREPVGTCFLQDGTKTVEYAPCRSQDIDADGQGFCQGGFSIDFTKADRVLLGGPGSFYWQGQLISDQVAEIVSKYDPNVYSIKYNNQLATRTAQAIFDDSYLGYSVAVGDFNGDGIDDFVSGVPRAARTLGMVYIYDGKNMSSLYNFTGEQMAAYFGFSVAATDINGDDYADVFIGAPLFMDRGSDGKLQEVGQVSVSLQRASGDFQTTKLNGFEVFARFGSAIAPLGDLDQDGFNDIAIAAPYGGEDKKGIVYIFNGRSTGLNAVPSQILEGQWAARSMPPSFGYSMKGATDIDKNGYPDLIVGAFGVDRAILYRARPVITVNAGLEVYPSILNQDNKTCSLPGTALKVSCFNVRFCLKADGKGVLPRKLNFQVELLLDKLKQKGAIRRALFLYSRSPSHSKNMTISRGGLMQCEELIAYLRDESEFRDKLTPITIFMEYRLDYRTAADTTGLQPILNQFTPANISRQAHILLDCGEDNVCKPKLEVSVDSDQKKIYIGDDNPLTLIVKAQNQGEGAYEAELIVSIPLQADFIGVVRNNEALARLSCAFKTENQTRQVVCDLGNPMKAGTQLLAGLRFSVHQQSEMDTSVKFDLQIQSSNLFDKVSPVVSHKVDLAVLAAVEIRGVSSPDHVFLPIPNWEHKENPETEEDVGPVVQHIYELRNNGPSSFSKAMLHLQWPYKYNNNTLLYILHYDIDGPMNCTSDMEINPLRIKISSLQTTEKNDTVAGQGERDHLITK
UniProt P06756, 891-1048 partner limits assumed: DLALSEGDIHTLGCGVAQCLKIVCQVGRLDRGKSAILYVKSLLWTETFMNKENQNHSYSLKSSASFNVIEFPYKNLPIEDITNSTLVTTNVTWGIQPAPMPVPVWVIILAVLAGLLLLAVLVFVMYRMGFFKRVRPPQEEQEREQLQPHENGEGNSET
UniProt P08514, 32-887 limits assumed: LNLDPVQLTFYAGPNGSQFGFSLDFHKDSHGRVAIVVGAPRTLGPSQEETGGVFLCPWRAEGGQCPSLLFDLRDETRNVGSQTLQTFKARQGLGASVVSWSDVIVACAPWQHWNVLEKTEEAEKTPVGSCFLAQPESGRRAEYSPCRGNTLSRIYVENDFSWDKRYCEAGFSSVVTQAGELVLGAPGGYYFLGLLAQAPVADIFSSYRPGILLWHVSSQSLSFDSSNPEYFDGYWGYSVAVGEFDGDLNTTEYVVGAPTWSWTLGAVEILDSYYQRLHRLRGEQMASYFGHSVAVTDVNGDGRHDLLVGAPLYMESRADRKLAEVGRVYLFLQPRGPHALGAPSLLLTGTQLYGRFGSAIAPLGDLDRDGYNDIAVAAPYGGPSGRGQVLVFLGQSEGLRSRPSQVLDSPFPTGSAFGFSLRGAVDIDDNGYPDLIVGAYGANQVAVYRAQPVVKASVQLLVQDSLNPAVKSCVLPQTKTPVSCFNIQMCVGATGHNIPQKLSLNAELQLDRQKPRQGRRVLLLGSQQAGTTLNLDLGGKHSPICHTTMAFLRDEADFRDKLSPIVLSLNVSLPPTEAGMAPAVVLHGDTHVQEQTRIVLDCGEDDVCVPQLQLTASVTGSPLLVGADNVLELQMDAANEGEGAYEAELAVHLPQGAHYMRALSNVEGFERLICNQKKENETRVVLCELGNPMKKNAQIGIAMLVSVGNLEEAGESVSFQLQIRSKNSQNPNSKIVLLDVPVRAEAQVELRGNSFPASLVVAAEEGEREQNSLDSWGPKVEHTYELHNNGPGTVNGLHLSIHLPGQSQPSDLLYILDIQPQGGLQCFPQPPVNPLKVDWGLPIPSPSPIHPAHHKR
UniProt P08514, 891-1039 partner limits assumed: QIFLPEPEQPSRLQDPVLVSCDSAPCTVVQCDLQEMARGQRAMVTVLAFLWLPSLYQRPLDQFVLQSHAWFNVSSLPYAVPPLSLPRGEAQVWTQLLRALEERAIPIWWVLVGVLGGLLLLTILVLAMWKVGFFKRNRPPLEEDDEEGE

Tests used:
αvβ3 integrin = αvβ3 integrin (Homo sapiens, UniProt P05106+P06756); test: Assay for the inhibition of αvβ3 integrin binding (vitronectin as ligand); settings: read-out: IC50 (nM) αvβ3 integrin binding; inhibition of specific binding of biotinylated human vitronectin to immobilized αvβ3 integrin
αIIbβ3 integrin = αIIbβ3 integrin (Homo sapiens, UniProt P05106+P08514); test: Assay for the inhibition of αIIbβ3 integrin binding (fibrinogen as ligand, integrin captured from platelet lysate); settings: read-out: IC50 (nM) αIIbβ3 integrin binding; inhibition of specific binding of biotinylated fibrinogen to αIIbβ3 integrin from human platelet lysate

SMILES | IC50 (αvβ3 integrin) [nM] | IC50 (αIIbβ3 integrin) [nM]
CCCCCCOC(=O)N[C@@H](CCC(=O)N1CCN(c2cccc(NC3=NCC(C)(C)CN3)c2)CC1)C(=O)O | 0.39 | > 1000
O=C(N[C@@H](CNC(=O)C1CCN(c2cccc(NC3=NCCCN3)c2)CC1)C(=O)O)c1ccccn1 | 0.75 | 430
O=C(Cc1ccccc1)N[C@@H](CNC(=O)C1CCN(c2cccc(NC3=NCCCN3)c2)CC1)C(=O)O | 0.74 | 450
CC(C)=CC(=O)N[C@@H](CNC(=O)C1CCN(c2cccc(NC3=NCCCN3)c2)CC1)C(=O)O | 0.87 | 480
CCCCCC(=O)N[C@@H](CNC(=O)C1CCN(c2cccc(NC3=NCCCN3)c2)CC1)C(=O)O | 5.1 | > 1000
O=C(NC[C@H](NC(=O)C1CCCC1)C(=O)O)C1CCN(c2cccc(NC3=NCCCN3)c2)CC1 | 3.9 | 960
CC(C)CC(=O)N[C@@H](CNC(=O)C1CCN(c2cccc(NC3=NCCCN3)c2)CC1)C(=O)O | 5.7 | 580
CCCCCCCCS(=O)(=O)N[C@@H](CNC(=O)C1CCN(c2cccc(NC3=NCCCN3)c2)CC1)C(=O)O | 1.4 | 650
O=C(CCc1ccccc1)N[C@@H](CNC(=O)C1CCN(c2cccc(NC3=NCCCN3)c2)CC1)C(=O)O | 3 | 1100

These reach a lower IC50 (αIIbβ3 integrin). Values come first.

IC50 (αvβ3 integrin) [nM] | IC50 (αIIbβ3 integrin) [nM] | SMILES
0.065 | 13 | Cc1cc(C)c(S(=O)(=O)N[C@@H](CNC(=O)C2CCN(c3cccc(NC4=NCCCN4)c3)CC2)C(=O)O)c(C)c1
0.1 | 24 | O=C(NC[C@H](NS(=O)(=O)c1ccccc1)C(=O)O)C1CCN(c2cccc(NC3=NCCCN3)c2)CC1
0.65 | 350 | CCCS(=O)(=O)N[C@@H](CNC(=O)C1CCN(c2cccc(NC3=NCCCN3)c2)CC1)C(=O)O
0.45 | 320 | O=C(NC[C@H](NS(=O)(=O)c1ccc(F)cc1)C(=O)O)C1CCN(c2cccc(NC3=NCCCN3)c2)CC1
– | 190 | COc1ccc(S(=O)(=O)N[C@@H](CNC(=O)C2CCN(c3cccc(NC4=NCCCN4)c3)CC2)C(=O)O)cc1
0.72 | 270 | CC(C)NC(=O)N[C@@H](CNC(=O)C1CCN(c2cccc(NC3=NCCCN3)c2)CC1)C(=O)O
0.25 | 73 | O=C(NC[C@H](NS(=O)(=O)c1ccc2ccccc2c1)C(=O)O)C1CCN(c2cccc(NC3=NCCCN3)c2)CC1
0.47 | 160 | O=C(Nc1cccnc1)N[C@@H](CNC(=O)C1CCN(c2cccc(NC3=NCCCN3)c2)CC1)C(=O)O
0.35 | 150 | O=C(NCc1ccccc1)N[C@@H](CNC(=O)C1CCN(c2cccc(NC3=NCCCN3)c2)CC1)C(=O)O
2.5 | 210 | O=C(N[C@@H](CNC(=O)C1CCN(c2cccc(NC3=NCCCN3)c2)CC1)C(=O)O)c1ccccc1
